Earlier results in patent US7030155B2, “Emulsion vehicle for poorly soluble drugs” (Sonus Pharmaceuticals, Inc., priority 1998, dated 2006).
Read-outs that look alike come from different tables or passages of the source.

In the case of `CC(=O)O[C@H]1C(=O)[C@@]2(C)[C@H]([C@H](OC(=O)c3ccccc3)[C@]3(O)C[C@H](OC(=O)[C@H](O)[C@@H](NC(=O)c4ccccc4)c4ccccc4)C(C)=C1C3(C)C)[C@]1(OC(C)=O)CO[C@@H]1C[C@@H]2O` [paclitaxel], the solubility of paclitaxel (30% PVP in water) is given as no more than 300 µg/mL and the solubility of paclitaxel (35% PEG 400 in water) is given as 30 µg/mL.
